Patent publication US9957272B2, “3-hydroxypyrrolidine inhibitors of 5′-methylthioadenosine phosphorylase and nucleosidase” (priority 2009, dated 2018)

Sequences of proteins named here, by UniProt entry; tags and fusion partners are left off. A change or cut given only in a name is not applied to a line headed by its entry.
UniProt P0AF12: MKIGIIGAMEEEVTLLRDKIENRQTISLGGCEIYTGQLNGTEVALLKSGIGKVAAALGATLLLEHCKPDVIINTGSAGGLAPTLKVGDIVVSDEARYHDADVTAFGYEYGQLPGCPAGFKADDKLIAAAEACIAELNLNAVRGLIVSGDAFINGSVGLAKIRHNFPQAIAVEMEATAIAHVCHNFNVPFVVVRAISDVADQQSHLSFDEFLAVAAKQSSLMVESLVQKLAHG

Molecular target: T1, E. coli MTAN (Escherichia coli, UniProt P0AF12)
T1 construct: made in house
Assay type: biochemical
Method: After removal of cell debris by centrifugation, the soluble cell lysates are loaded onto nickel-charged chelating Sepharose (GE Healthcare) and washed with lysis buffer containing 20-150 mM imidazole. The 6His-MTANs are eluted in 250 mM imidazole, desalted using a Sephadex G-15 (GE Healthcare) gel filtration column, equilibrated with low salt buffer (100 mM HEPES, 30 mM KCL, pH 7.6) and concentrated to 40 mg/mL.
Briefly, all experiments are carried out at 25° C., in 1 mL total reaction volume containing 100 mM HEPES buffer, pH 7.5 and 50 mM KCl with 5′-deoxymethylthioadenosine (MTA) as substrate. […] For measuring dissociation constant (Kd) of inhibitors, a xanthine oxidase-coupled assay is carried out. […] Control experiments are carried out in the absence of either inhibitor or MTAN.
[formula] where vs^t and vs are steady state rates in the presence, and absence of inhibitor, respectively; Km is substrate Michaelis constant which is obtained as described above; [S] and [I] are the concentrations of the substrate MTA and inhibitor, respectively. If the concentration of inhibitor is smaller than 10-fold concentration of enzymes, the following correction is then applied: r=I′−(1−v0′/v0)Et
All data fitting is carried out with KaleidaGraph™ ver. 3.5 (Synergy Software).

| Structure (SMILES) | Selectivity for bacterial MTAN |
| --- | --- |
| Nc1ncnc2c(CN3C[C@@H](O)[C@H](c4c[nH]nn4)C3)c[nH]c12 (racemic) [Example 15, (±)-trans-1-[(9-Deaza-adenin-9-yl)methyl]-3-hydroxy-4-(1H-1,2,3-triazol-4-yl)pyrrolidine] | some selectivity for bacterial MTAN |
| Nc1ncnc2c(CN3C[C@@H](O)[C@H](c4cn(Cc5ccccc5)nn4)C3)c[nH]c12 (racemic) [Example 14, (±)-trans-4-(1-Benzyl-1H-1,2,3-triazol-4-yl)-1[(9-deaza-adenin-9-yl)methyl]-3-hydroxypyrrolidine] | some selectivity for bacterial MTAN |
